Target: 5-hydroxytryptamine receptor 5A (Mus musculus, UniProt P30966)

Sequences of proteins named here, by UniProt entry; tags and fusion partners are left off.
UniProt P30966, whole entry: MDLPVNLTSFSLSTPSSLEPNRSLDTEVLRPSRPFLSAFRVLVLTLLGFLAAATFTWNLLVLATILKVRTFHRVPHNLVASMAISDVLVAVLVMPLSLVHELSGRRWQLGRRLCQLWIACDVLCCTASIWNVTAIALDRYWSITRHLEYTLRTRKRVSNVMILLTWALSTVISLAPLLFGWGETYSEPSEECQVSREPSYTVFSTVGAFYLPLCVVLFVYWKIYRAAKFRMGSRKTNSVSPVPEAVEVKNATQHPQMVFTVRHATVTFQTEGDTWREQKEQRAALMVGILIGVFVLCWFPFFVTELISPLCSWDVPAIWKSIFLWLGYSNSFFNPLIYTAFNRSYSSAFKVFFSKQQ

NCCc1c[nH]c2ccc(O)cc12 [[3H]-5-HT]
Ki: 251 nM
